Target: T1, human BChE (Homo sapiens, UniProt P06276)
T1 construct: Dr. O. Lockridge (sample obtained from them, not a commercial vendor)
Assay: Inhibition of human BChE hydrolysis of acyl-ghrelin and BTCh by inhibitors
Type: biochemical
Method: FIGS. 3A-3D. […] (3B) One ng of human acyl-ghrelin was treated with different amount of human BChE. After 20 hours of incubation, residual acyl ghrelin and desacyl ghrelin in each reaction were determined. (3C) One ng of human acyl ghrelin was treated with 10 µg of human BChE and % decrease in residual acyl ghrelin was measured as a function of time. […] The hydrolysis activities with butyrylthiocholine (BTCh) or acyl-ghrelin as substrates were determined by Ellman assay and acyl-ghrelin immunoassay, respectively. Data are normalized to the no inhibitor controls. All values are means ± SD, each with duplicate samples (n=3).
A sample of purified human BChE was obtained from Dr. O. Lockridge and assessed by gel electrophoresis (FIG. 3A).

Chains of the proteins cited; added tags and fusions are not shown. Residues count along the entry.
UniProt P06276, 29-602: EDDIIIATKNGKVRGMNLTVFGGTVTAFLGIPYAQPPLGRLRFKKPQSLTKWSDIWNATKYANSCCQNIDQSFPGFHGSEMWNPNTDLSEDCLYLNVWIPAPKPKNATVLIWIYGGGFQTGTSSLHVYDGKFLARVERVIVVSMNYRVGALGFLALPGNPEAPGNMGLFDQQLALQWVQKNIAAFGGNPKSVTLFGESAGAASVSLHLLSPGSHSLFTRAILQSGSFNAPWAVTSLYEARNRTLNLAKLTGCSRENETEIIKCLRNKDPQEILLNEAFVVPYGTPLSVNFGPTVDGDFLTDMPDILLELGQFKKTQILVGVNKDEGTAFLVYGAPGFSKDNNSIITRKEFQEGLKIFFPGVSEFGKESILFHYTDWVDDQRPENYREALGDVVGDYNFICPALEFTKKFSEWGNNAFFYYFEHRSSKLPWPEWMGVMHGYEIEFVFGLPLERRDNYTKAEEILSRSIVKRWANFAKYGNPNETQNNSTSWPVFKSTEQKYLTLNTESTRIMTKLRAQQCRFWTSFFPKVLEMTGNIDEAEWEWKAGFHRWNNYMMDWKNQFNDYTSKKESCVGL

In the case of `CC(C)NP(=O)(NC(C)C)OP(=O)(NC(C)C)NC(C)C` [iso-OMPA], the “inhibition of acyl ghrelin hydrolysis by human BChE” value (10 µg human BChE, 10 minutes with inhibitor, then 1 ng acyl ghrelin, 20 hours, acyl-ghrelin immunoassay) is reported as “blocked” and the “inhibition of butyrylthiocholine (BTCh) hydrolysis by human BChE” value (Ellman assay, iso-OMPA 10 or 100 µM) is reported as “blocks”.
